Laboratory results taken from paper PMC11377155.

Columns and labels:
[1] = target: RhoA (human (endogenous in iPSC-derived cortical neurons)) (UniProt P61586); assay: proximity ligation; Duolink PLA with anti-pS129 and anti-Rab8 or anti-RhoA antibodies in fixed, saponin-permeabilised pi-N neurons without PFF seeding (Type I lipid-rich inclusions); percent of pS129(+) soma-type inclusions with PLA signal
[2] = target: RhoA (human (endogenous in iPSC-derived cortical neurons)) (UniProt P61586); assay: proximity ligation; Duolink PLA with anti-pS129 and anti-Rab8 or anti-RhoA antibodies in fixed pi-N A53T neurons seeded with A53T αS PFFs (presumed Type II fibrillar inclusions); percent of pS129(+) soma-type inclusions with PLA signal

“αS-3K-sfGFP, phosphorylated at serine 129 (from UniProt P37840 1-140) (natural protein; other documents disagree on this pair)” showed a percent of inclusions with PLA signal [1] of 100%.

“αS-A53T-sfGFP, phosphorylated at serine 129 (from UniProt P37840 1-140) (natural protein; other documents disagree on this pair)” was tested, and the percent of inclusions with PLA signal [1] was 99.7% and the percent of inclusions with PLA signal [2] was 42.8%.
